PubChem BioAssay AID1259423 (Fisher Drug Discovery Resource Center, 2018)
Values joined by “and” are separate entries in the source; they are usually repeats but may differ in a detail not shown here. Equal entries are not always repeated. This is a selection; strong and weak results do not stand in their true shares. Active and inactive are the calls of the source. Rule as the data show it: active = activation above about 40%; inactive = the rest, inconclusive results apart.

What follows are compounds tested on Aedes aegypti neuropeptide Y-like receptor 7 (NPYLR7) (assay: agonists of mosquito NPYLR7 receptor, primary screen, cell-based, Aedes aegypti, calcium fluorescence, mosquito biting behavior (AID 1259423;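 also: 0% = vehicle and 100% = reference agonist at the receptor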)). Conditions: HEK293T NPYLR7/Galpha15, GCaMP6s calcium fluorescence; at 10 µM; hits give high values.

Structure (SMILES)	activation
COc1cccc(N(C(=O)c2cccc(Cl)c2)C2CCNCC2)c1	inactive: 14.7%
O=C(NCC1(N2CCCCC2)CCCCC1)c1cn2ccccc2n1	inactive: 7.06%
CC(C)(C)OC(=O)N1CCC(Nc2ccccc2)(C(=O)N2CCC2)CC1	inactive: 0.516%
CN(C)C1(CNC(=O)c2ccccn2)CCCCC1	inactive: 12.5%
O=C(NCC1(N2CCOCC2)CCCCC1)c1ccc(Br)o1	inactive: 5.35%
Cc1ccc(C(C)CCN(CCCl)CCCl)cc1 (stereo unspecified)	inactive: -2.8%
O=C(NCC1(N2CCCCC2)CCCCC1)c1cccs1	inactive: -1.24%
Cc1nc([N+](=O)[O-])cn1CCC(=O)N[C@@H]1CCCC[C@H]1N1CCOCC1	inactive: 12.9%
c1ccc(NC2CCN(CCc3ccncc3)CC2)cc1	inactive: 12.6%
CCOC(OCC)P(=S)(OCC)OCC	inactive: -8.83%
O=C(N[C@@H]1CCCC[C@H]1N1CCOCC1)c1cccc(Br)c1	inactive: -11.3%
Cc1cc(=O)[nH]c(C(C)N2CCC(Nc3ccccc3)CC2)n1 (stereo unspecified)	inactive: 7.39% and inactive: 6.37%
O=C(NCC1(N2CCOCC2)CCCCC1)c1ccc2c3c(cccc13)CC2	inactive: -0.0673%
COCC(=O)N(c1cccc(C)c1)C1CCNCC1	inactive: 13.5%
O=C(NCC1(N2CCCCC2)CCCCC1)c1cc2c(s1)CCC2	inactive: 20.7%
COc1cc(NC2CCNCC2)cc(OC)c1	inactive: -2.6%
O=C(NCC1(N2CCCCC2)CCCCC1)c1ccc2c(c1)OCO2	inactive: 2.05%
O=c1[nH]c2ccccc2n1C1CCN(Cc2ccccn2)CC1	inactive: -5.3%
Cc1cccc(N(C(=O)c2ccco2)C2CCN(C(=O)OC(C)(C)C)CC2)c1	inactive: 1.62%
N#Cc1ccc(C(=O)CBr)cc1	inactive: 13%
COc1cccc(NC2CCN(Cc3ccncc3)CC2)c1	inactive: 3.69%
O=C(NCC1(N2CCOCC2)CCCCC1)c1ccc(OCC(F)(F)F)nc1	inactive: -13.7%
O=c1[nH]c2ccccc2n1C1CCN(Cc2cccc(F)c2F)CC1	inactive: 0.256%
COc1ccc(N(C(=O)CC(C)C)C2CCNCC2)cc1	inactive: 12.3%
CCc1ccc(N(C(=O)c2cccc(C)c2)C2CCNCC2)cc1	inactive: 17%
Cc1ccc(N(C(=O)c2ccco2)C2CCNCC2)cc1F	inactive: 18%
